Reference: US20120142584A1, “NOVEL TRANSPORTER CONSTRUCTS AND TRANSPORTER CARGO CONJUGATE MOLECULES” (priority 2008, published 2012)
Like-named read-outs stand apart in the source and are kept apart here.

Chains of the proteins cited; added tags and fusions are not shown. Residues count along the entry.
UniProt P06873, 106-384, species assumed: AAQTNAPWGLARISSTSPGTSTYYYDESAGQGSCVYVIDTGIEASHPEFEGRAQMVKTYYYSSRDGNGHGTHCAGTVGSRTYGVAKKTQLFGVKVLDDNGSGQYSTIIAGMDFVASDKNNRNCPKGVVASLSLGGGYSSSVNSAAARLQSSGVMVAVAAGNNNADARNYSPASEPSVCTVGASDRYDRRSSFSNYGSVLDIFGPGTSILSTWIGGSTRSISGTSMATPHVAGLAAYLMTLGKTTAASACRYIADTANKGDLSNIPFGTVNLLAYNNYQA

Target: Proteinase K (Parengyodontium album, UniProt P06873)
[1] = Proteinase K, t=0, 10 and 40 minutes, mass spectrometry analysis

| Protease sensitivity | Protease sensitivity [1] | Structure (SMILES) |
| --- | --- | --- |
|  | − | N=C(N)NCCC[C@@H](N)C(=O)N[C@H](CCCNC(=N)N)C(=O)N[C@@H](CCCNC(=N)N)C(=O)N[C@@H](CCCNC(=N)N)C(=O)N[C@H](CCCNC(=N)N)C(=O)N[C@H](CCCNC(=N)N)C(=O)N[C@@H](CCCNC(=N)N)C(=O)N[C@@H](CCCNC(=N)N)C(=O)N[C@H](CCCNC(=N)N)C(=O)O [SEQ ID No. 259, rrRRrrRRr] |
|  | + | N=C(N)NCCC[C@@H](N)C(=O)N[C@H](CCCNC(=N)N)C(=O)N[C@H](CCCNC(=N)N)C(=O)N[C@@H](CCCNC(=N)N)C(=O)N[C@@H](CCCNC(=N)N)C(=O)N[C@@H](CCCNC(=N)N)C(=O)N[C@H](CCCNC(=N)N)C(=O)N[C@H](CCCNC(=N)N)C(=O)N[C@H](CCCNC(=N)N)C(=O)O [SEQ ID No. 260, rrrRRRrrr] |
|  | + | N=C(N)NCCC[C@@H](N)C(=O)N[C@H](CCCNC(=N)N)C(=O)N[C@H](CCCNC(=N)N)C(=O)N[C@@H](CCCNC(=N)N)C(=O)N[C@@H](CCCNC(=N)N)C(=O)N[C@@H](CCCNC(=N)N)C(=O)N[C@@H](CCCNC(=N)N)C(=O)N[C@H](CCCNC(=N)N)C(=O)N[C@H](CCCNC(=N)N)C(=O)O [SEQ ID No. 261, rrrRRRRrr] |

Second part, the compound before the results:

| Structure (SMILES) | Protease sensitivity | Protease sensitivity [1] |
| --- | --- | --- |
| N=C(N)NCCC[C@H](NC(=O)[C@H](CCCNC(=N)N)NC(=O)[C@H](CCCNC(=N)N)NC(=O)[C@H](CCCNC(=N)N)NC(=O)[C@H](CCCNC(=N)N)NC(=O)[C@H](CCCNC(=N)N)NC(=O)[C@H](CCCNC(=N)N)NC(=O)[C@H](CCCNC(=N)N)NC(=O)[C@@H](N)CCCNC(=N)N)C(=O)O [SEQ ID No. 123, reference compound] | + |  |
| N=C(N)NCCC[C@@H](N)C(=O)N[C@H](CCCNC(=N)N)C(=O)N[C@H](CCCNC(=N)N)C(=O)N[C@H](CCCNC(=N)N)C(=O)N[C@H](CCCNC(=N)N)C(=O)N[C@H](CCCNC(=N)N)C(=O)N[C@H](CCCNC(=N)N)C(=O)N[C@H](CCCNC(=N)N)C(=O)N[C@H](CCCNC(=N)N)C(=O)O [SEQ ID No. 257, rrrrrrrrr] |  | − |
| N=C(N)NCCC[C@@H](N)C(=O)N[C@@H](CCCNC(=N)N)C(=O)N[C@H](CCCNC(=N)N)C(=O)N[C@@H](CCCNC(=N)N)C(=O)N[C@H](CCCNC(=N)N)C(=O)N[C@@H](CCCNC(=N)N)C(=O)N[C@H](CCCNC(=N)N)C(=O)N[C@@H](CCCNC(=N)N)C(=O)N[C@H](CCCNC(=N)N)C(=O)O [SEQ ID No. 258, rRrRrRrRr] |  | − |
